The results in this text go back to PubChem BioAssay AID1645855 (Buhrlage Lab, Dana-Farber Cancer Institute and Novartis …, 2021).

Sequences of proteins named here, by UniProt entry; tags and fusion partners are left off. A change or cut given only in a name is not applied to a line headed by its entry.
UniProt A8MUK1: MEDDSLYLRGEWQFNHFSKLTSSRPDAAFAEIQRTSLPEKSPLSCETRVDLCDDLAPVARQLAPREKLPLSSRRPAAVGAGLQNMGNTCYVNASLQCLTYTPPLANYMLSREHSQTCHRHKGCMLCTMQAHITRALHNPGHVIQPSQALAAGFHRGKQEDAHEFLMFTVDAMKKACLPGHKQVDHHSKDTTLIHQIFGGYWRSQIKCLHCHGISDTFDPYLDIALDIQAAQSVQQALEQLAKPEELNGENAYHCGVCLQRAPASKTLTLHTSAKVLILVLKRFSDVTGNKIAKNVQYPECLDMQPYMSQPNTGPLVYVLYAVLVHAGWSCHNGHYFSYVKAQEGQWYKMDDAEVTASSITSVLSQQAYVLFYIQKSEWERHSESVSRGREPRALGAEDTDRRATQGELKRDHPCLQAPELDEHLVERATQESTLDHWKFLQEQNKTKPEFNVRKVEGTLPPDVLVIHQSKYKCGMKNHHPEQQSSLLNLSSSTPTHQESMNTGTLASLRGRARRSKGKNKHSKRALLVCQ

Molecules are shown by their SMILES. Only a part is listed here, and it is no random draw. Calls of active or inactive are those of the source. No stated cut-off is given here; in the data, active means inhibition above about 30%; inactive means the rest.

This experiment concerns the target Ubiquitin carboxyl-terminal hydrolase 17-like protein 5 (Homo sapiens) (UniProt A8MUK1). The experiment can be described thus: blocks human USP17 ubiquitin-rhodamine cleavage (AID 1645855). The settings on record: purified USP17, Ub-rhodamine cleavage fluorescence, 3 h; at 50 µM; hits give high values.
Take `CS(=O)(=O)c1ccc(C(=O)N(Cc2ccco2)C2CCN(CCc3ccccn3)CC2)cc1`: the inhibition was inactive: -36.9%. Regarding `N#Cc1cccc(C(=O)N(Cc2cccnc2)C2CCN(CCc3ccccn3)CC2)c1`, the inhibition was inactive: -25.1%. Take `CS(=O)(=O)c1ccc(C(=O)N(Cc2cccnc2)C2CCN(CCc3ccc(Cl)cc3)CC2)cc1`: the inhibition is inactive: -64.4%. As to `COc1ccc(CCN2CCC(N(Cc3ccco3)C(=O)c3ccc(S(C)(=O)=O)cc3)CC2)cc1`, the inhibition was inactive: -26.2%. As for `N#Cc1cccc(C(=O)N(Cc2ccco2)C2CCN(CCc3ccccn3)CC2)c1`, the inhibition is inactive: 4.69%. Regarding `CN1C(=O)C2C(NC(=NCc3ccco3)N2CCc2ccccc2)N(C)C1=O` (stereo unspecified), the inhibition is inactive: -5.83%. As for `N#Cc1cccc(C(=O)N(Cc2ccco2)C2CCN(CCc3ccc(Cl)cc3)CC2)c1`, the inhibition is inactive: -23.4%. The result for `Cc1[nH]c2c(N(C(=O)Nc3ccccc3)C3CCN(Cc4ccccc4)CC3)cccc2c1C` reads inactive: -24%; that for `COc1ccc(CCN2CCC(N(Cc3cccnc3)C(=O)c3cccc(C#N)c3)CC2)cc1`, inactive: -33.7%.

For `O=C(c1ccc2c(c1)OCO2)N(Cc1ccco1)C1CCN(CCc2ccccn2)CC1`, the inhibition was inactive: -9.71%. The value for `O=C(COC(=O)C(O)(c1ccccc1)c1ccccc1)NCc1ccc2c(c1)OCO2` was inactive: -24.1%.

As a reminder, the inhibition is the relative decrease from the control value, in per cent.
